## Ab-14 light chain CDR variants: yeast mating affinities

Binding partner: SARS-CoV-2 spike HR2 peptide, sequence PDVDLGDISGINAS.

The variants keep the heavy chain, the linker and the frameworks of Ab-14 (scFv order VH, three GGGGS repeats, VL).
VH: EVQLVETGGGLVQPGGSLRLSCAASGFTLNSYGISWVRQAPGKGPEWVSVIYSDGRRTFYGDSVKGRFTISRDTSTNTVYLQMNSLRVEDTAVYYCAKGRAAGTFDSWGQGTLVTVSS
VL: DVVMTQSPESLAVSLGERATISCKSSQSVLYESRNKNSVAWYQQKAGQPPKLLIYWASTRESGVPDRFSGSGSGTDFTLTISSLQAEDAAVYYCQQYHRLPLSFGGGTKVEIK

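The starting antibody came from a phage panning campaign against this peptide. This is the validation round: designs drawn from the data on random variants, tested in the same kind of assay. Their group label is 14L_Ctrl (Ctrl: baseline library sampled from a position-specific scoring matrix, with some repeated check sequences). AlphaSeq pools MATa yeast showing the antibodies with MATalpha yeast showing the peptide. Binding brings cells together so that they mate, and sequencing counts the barcode pairs among the diploids. The ratio of observed to expected reads was calibrated, replicate by replicate, on BCL2-family standards whose Kd was known from biolayer interferometry. The assay was run in six technical replicates.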

Changes read parent residue, position, new residue, counted from the first residue of the VL shown. The read-out is the apparent dissociation constant on a log10 scale (nM): the lower, the stronger. A mean of the replicates is given; it leaves out those without a signal. "ND" marks a missing value. The strain was present, yet no cells mated with the target were sequenced in that replicate, which points to weak or no binding.

{"changes": "Y31G R34G W56E R99H", "log10 Kd (nM) by replicate": "0.99 0.65 0.90 0.76 0.56 0.90", "log10 Kd (nM), mean": "0.79", "control signals": "2 of 18 (1.80)"}
{"changes": "Y31D Q96T", "log10 Kd (nM) by replicate": "1.38 1.18 0.62 1.65 1.18 1.68", "log10 Kd (nM), mean": "1.28", "control signals": "0 of 18"}
{"changes": "S25V N37K W56D", "log10 Kd (nM) by replicate": "-0.14 -0.28 0.01 -0.34 -0.30 -0.28", "log10 Kd (nM), mean": "-0.22", "control signals": "1 of 18 (2.35)"}
{"changes": "K36H S62E", "log10 Kd (nM) by replicate": "0.84 0.71 2.90 2.07 1.49 1.58", "log10 Kd (nM), mean": "1.60", "control signals": "0 of 18"}
{"changes": "K36H T59Y Q96D S103V", "log10 Kd (nM) by replicate": "ND ND ND ND ND ND", "log10 Kd (nM), mean": "ND", "control signals": "0 of 18"}
{"changes": "S26Q Q27L S38E W56F Y97P", "log10 Kd (nM) by replicate": "ND ND ND ND ND ND", "log10 Kd (nM), mean": "ND", "control signals": "0 of 18"}
{"changes": "Q27T V29L L30P K36V S58E T59K L102A", "log10 Kd (nM) by replicate": "ND ND ND ND ND ND", "log10 Kd (nM), mean": "ND", "control signals": "0 of 18"}
{"changes": "Q27D N35R H98S", "log10 Kd (nM) by replicate": "ND 2.26 ND ND ND 2.72", "log10 Kd (nM), mean": "2.49", "control signals": "0 of 18"}
{"changes": "S26D S28A W56D", "log10 Kd (nM) by replicate": "0.18 0.34 0.25 0.28 0.13 0.36", "log10 Kd (nM), mean": "0.26", "control signals": "0 of 18"}
{"changes": "S33R W56S S62L", "log10 Kd (nM) by replicate": "-0.10 0.06 -0.29 -0.39 -0.20 -0.14", "log10 Kd (nM), mean": "-0.18", "control signals": "1 of 18 (1.03)"}
{"changes": "Q27Y Y31G V39I", "log10 Kd (nM) by replicate": "1.83 1.03 1.31 1.85 1.07 1.47", "log10 Kd (nM), mean": "1.43", "control signals": "2 of 18 (2.70)"}
{"changes": "S28G V29S R60Q", "log10 Kd (nM) by replicate": "ND ND ND ND ND ND", "log10 Kd (nM), mean": "ND", "control signals": "0 of 18"}
{"changes": "L30T R34L", "log10 Kd (nM) by replicate": "ND ND ND ND ND ND", "log10 Kd (nM), mean": "ND", "control signals": "0 of 18"}
{"changes": "Q27V L30V E32F W56D", "log10 Kd (nM) by replicate": "-0.11 -0.27 -0.22 -0.11 0.01 0.35", "log10 Kd (nM), mean": "-0.06", "control signals": "2 of 18 (1.62)"}
{"changes": "Q27I", "log10 Kd (nM) by replicate": "ND ND ND ND ND ND", "log10 Kd (nM), mean": "ND", "control signals": "0 of 18"}
{"changes": "V29C W56A", "log10 Kd (nM) by replicate": "ND 0.66 1.65 1.29 0.88 1.41", "log10 Kd (nM), mean": "1.18", "control signals": "1 of 18 (1.55)"}
{"changes": "L30Y R34E", "log10 Kd (nM) by replicate": "1.06 2.37 0.87 1.82 1.14 2.25", "log10 Kd (nM), mean": "1.58", "control signals": "0 of 18"}
{"changes": "S28W S38A", "log10 Kd (nM) by replicate": "ND ND ND ND ND ND", "log10 Kd (nM), mean": "ND", "control signals": "0 of 18"}
{"changes": "S25L E32D N37E S38P W56D", "log10 Kd (nM) by replicate": "0.30 0.01 0.15 -0.08 -0.03 0.29", "log10 Kd (nM), mean": "0.11", "control signals": "1 of 18 (2.42)"}
{"changes": "R34D W56A T59K Q95F R99P", "log10 Kd (nM) by replicate": "ND ND ND 2.01 ND ND", "log10 Kd (nM), mean": "2.01", "control signals": "0 of 18"}
{"changes": "Q27K", "log10 Kd (nM) by replicate": "ND 2.66 ND 3.05 2.86 ND", "log10 Kd (nM), mean": "2.86", "control signals": "0 of 18"}
{"changes": "S25L S62P", "log10 Kd (nM) by replicate": "0.66 0.54 0.68 0.40 0.43 0.74", "log10 Kd (nM), mean": "0.58", "control signals": "2 of 18 (2.82)"}
{"changes": "S25I Q27Y Y31S L102N", "log10 Kd (nM) by replicate": "ND ND ND ND ND ND", "log10 Kd (nM), mean": "ND", "control signals": "0 of 18"}
{"changes": "S25F S33M N37Q W56A", "log10 Kd (nM) by replicate": "0.29 0.28 0.20 0.22 0.24 0.21", "log10 Kd (nM), mean": "0.24", "control signals": "0 of 18"}
{"changes": "S28A A40W T59I", "log10 Kd (nM) by replicate": "ND ND ND ND ND ND", "log10 Kd (nM), mean": "ND", "control signals": "0 of 18"}
{"changes": "S25F K36S W56Q S62P", "log10 Kd (nM) by replicate": "-0.46 -0.32 -0.50 -0.79 -0.37 -0.31", "log10 Kd (nM), mean": "-0.46", "control signals": "0 of 18"}
{"changes": "S25V S33Q", "log10 Kd (nM) by replicate": "1.30 1.28 0.71 1.44 1.32 1.29", "log10 Kd (nM), mean": "1.22", "control signals": "0 of 18"}

A selection of 3 entries from above:

changes,log10 Kd (nM) by replicate,"log10 Kd (nM), mean",control signals
Q27D N35R H98S,ND 2.26 ND ND ND 2.72,2.49,0 of 18
S28G V29S R60Q,ND ND ND ND ND ND,ND,0 of 18
Y31D Q96T,1.38 1.18 0.62 1.65 1.18 1.68,1.28,0 of 18

As a blank, each scFv also met three strains without target: over all light chain designs, 4% of these pairings were detected, typically at 2.64 and seldom below 1.59. The control count says in how many pairings with the empty strains this scFv gave a signal, with their mean in brackets. The authors' rule: three or more of the six replicates give a measured affinity, fewer mean a poor binder. The range of this assay differs from that of the first round, and the authors advise against merging the two.

Reference: Li et al. 2023, doi:10.1038/s41467-023-39022-2. File: FLAb, binding data.